Columns and labels:
[1] = Tendency for bubbles to appear in the polyvinyl chlorides containing the lubricating agents; type: physicochemical
[2] = Static thermostability of the lubricated resin, oven 185° C; settings: study E(a), 0.5 part

For glyceryl trimontanate, the “Observations (release of gas)” value [1] was “Release increasing”, the “Temperature at which bubbles appear” value [1] was 150 °C and the “Static thermostability, abrupt decomposition after” value [2] was 60 min.

— patent publication US4098706A, “Lubricating agents for thermoplastic materials and process for preparing the same” (Sapchim-Fournier-Cimag, priority 1975, dated 1978)
